# Results: ChEMBL document CHEMBL5523753, “Structure-Based Design and Discovery of a Potent and Cell-Active LC3A/B Covalent Inhibitor” (J Med Chem, 2024)
# Sequences of proteins named here, by UniProt entry; tags and fusion partners are left off. A change or cut given only in a name is not applied to a line headed by its entry.
# UniProt Q9BXW4: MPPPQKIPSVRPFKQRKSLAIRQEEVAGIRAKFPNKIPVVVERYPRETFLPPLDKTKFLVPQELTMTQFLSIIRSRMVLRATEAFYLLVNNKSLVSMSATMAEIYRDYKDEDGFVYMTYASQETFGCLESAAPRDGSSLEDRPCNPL
# Activity calls are given as the source filed them. The rule behind the calls is not given here.
# Molecular target: Microtubule-associated protein 1 light chain 3 gamma/Sequestosome-1 (Homo sapiens) (UniProt Q13501+Q9BXW4)
# Assay: Disruption of LC3C/P62 protein-protein interaction in HEK293 cells at 0.5 to 5 uM measured for 24 hrs by co-immunoprecipitation analysis
# Type: cell-based
# Conditions: dose 0.5-5 µM
compound,measurement,value
CN(C)CCNC=C1C(=O)CC(c2c(Cl)c(Cl)cc3[nH]ccc23)CC1=O (stereo unspecified),Activity,inactive
